The EC50 is the concentration giving half of the maximal effect.

Chains of the proteins cited; added tags and fusions are not shown. Residues count along the entry.
UniProt O91936, 1028-2462: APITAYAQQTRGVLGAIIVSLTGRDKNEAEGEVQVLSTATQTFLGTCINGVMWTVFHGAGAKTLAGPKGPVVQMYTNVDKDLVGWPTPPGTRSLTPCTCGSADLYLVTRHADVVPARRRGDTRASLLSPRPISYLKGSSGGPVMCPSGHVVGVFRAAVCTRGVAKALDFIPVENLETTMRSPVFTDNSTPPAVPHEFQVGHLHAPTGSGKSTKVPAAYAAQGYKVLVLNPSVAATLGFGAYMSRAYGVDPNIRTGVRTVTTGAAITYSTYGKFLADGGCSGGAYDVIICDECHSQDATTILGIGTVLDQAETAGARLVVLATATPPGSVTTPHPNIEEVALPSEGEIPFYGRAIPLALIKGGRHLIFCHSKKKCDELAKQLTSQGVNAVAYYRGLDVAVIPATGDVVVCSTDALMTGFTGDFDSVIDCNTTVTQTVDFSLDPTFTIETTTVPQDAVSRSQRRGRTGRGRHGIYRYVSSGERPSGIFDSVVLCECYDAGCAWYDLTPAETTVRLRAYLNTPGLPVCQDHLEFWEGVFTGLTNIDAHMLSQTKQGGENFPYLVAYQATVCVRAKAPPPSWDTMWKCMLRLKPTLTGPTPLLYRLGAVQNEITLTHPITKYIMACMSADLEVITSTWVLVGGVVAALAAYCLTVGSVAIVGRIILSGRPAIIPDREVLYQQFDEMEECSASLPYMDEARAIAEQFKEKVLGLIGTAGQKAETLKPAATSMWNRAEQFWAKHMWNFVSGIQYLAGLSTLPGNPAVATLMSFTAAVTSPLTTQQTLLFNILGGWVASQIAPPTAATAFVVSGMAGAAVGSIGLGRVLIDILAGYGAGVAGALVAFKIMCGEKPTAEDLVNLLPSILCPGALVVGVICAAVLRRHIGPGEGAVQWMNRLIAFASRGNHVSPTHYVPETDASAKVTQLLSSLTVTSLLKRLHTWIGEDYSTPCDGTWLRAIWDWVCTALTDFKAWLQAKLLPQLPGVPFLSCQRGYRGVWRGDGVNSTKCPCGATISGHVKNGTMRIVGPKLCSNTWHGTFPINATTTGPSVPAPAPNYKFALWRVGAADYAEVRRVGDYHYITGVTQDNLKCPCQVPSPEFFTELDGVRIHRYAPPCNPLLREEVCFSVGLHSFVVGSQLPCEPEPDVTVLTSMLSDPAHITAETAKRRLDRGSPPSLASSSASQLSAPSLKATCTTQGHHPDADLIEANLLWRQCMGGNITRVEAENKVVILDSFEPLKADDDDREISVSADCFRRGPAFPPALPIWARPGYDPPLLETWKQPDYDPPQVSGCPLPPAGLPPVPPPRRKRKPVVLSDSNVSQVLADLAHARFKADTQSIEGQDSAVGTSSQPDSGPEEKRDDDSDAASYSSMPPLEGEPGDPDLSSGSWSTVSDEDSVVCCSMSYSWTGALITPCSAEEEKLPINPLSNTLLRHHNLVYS

EC50 data for two compounds are collected here from paper PMC5740381 (Antimicrobial Agents and Chemotherapy, 2017).

Assay [1] addresses T1, GT5a SA13 / 5a Wild type (Hepatitis C virus SA13, UniProt O91936).
T1 construct: full-length NS3 through first 39 aa of NS5B in genotype 2a JFH-1 chimeric replicon
Kind of assay: cell-based. The note with it: SD, n = 3. Further details: species or system Huh-7.

The test system of assay [2] is T2, GT2b / 2b Wild type.
T2 construct: NS3 protease domain (N-terminal 251 aa) in genotype 2a JFH-1 chimeric replicon
As to the kind of experiment: Luciferase reporter assay of HCV replication in stable subgenomic replicon cells, 5% fetal bovine serum, no human plasma (at least 3 experiments). The note with it: SD, n = 3; read-out: HCV stable replicons in 0% human plasma, Mean EC50 ± SD. The format is cell-based, Huh-7. From the text:
(§1) . Five of these nine cell lines have been described previously, including those transfected with genotypes 1a H77, 1b Con1, 3a, 4a, and 6a ([28]). The other four cell lines were established by transfecting cells with a nonchimeric genotype 2a JFH-1 replicon (GenBank accession number AB047639), two genotype 2a JFH-1 chimeric replicons containing either a genotype 2b NS3 protease domain (N-terminal 251 amino acids) or a sequence encoding full-length NS3 through the first 39 amino acids of NS5B from genotype 5a (strain SA13), and one chimeric replicon with a genotype 1b Con1 backbone containing full-length NS3 and NS4A sequences from genotype 6e. The genotype 2b and 6e NS3 sequences were each synthetically constructed based on a consensus sequence derived from the alignment of 15 genotype 2b and 4 genotype 6e sequences, respectively. […] The inhibitory effect of the PIs on HCV replication in replicon cells was determined in Dulbecco's modified Eagle medium containing 5% fetal bovine serum with or without 40% human plasma (Bioreclamation, Westbury, NY). The EC50s were determined using nonlinear regression curve fitting as described previously ([33]).
In general terms: A reporter such as luciferase makes a cellular process visible.

The target of assay [3] is T1, GT5a SA13 / 5a Wild type. Kind of assay: cell-based. Further details: species or system Huh-7. The note with it: SD, n = 3. The source holds these as a separate data set.
In assay [4] the test system is HCV subgenomic stable replicon GT5a SA13. The format is cell-based, Hepatitis C virus. The note with it: 0% human plasma, read-out: Mean EC50 ± SD.
Assay [5] relates to HCV subgenomic stable replicon GT2b. Kind of assay: Stable HCV replicon luciferase assay in Huh-7 cells. The format is cell-based, Hepatitis C virus. The note with it: 0% human plasma, read-out: Mean EC50 ± SD.
From the text: as §1

`C=C[C@@H]1C[C@]1(NC(=O)[C@@H]1C[C@@H]2CN1C(=O)[C@H](C(C)(C)C)NC(=O)O[C@@H]1C[C@H]1CCCCCc1nc3ccc(OC)cc3nc1O2)C(=O)NS(=O)(=O)C1CC1` [Grazoprevir, grazoprevir (MK-5172)]: the EC50 in assay [1] was 0.06 ± 0.02 nM; in assay [2] it was 15 ± 2 nM; in assay [3] it was 2.1 ± 0.58 nM.
For the compound `C=C[C@@H]1C[C@]1(NC(=O)[C@@H]1C[C@@H]2CN1C(=O)[C@H](C(C)(C)C)NC(=O)O[C@@H]1C[C@H]1CCCCCc1nc3ccc(OC)cc3nc1O2)C(=O)NS(=O)(=O)C1CC1` [Grazoprevir], the EC50 in assay [4] is 2.1 ± 0.58 nM; in assay [5], 15 ± 2 nM.
